Rango complex inh – prevents formation of the Rango-importin beta complex | Q14974 | Rango CFP/YFP FRET sensor + importin beta, 45 min | Potency, µM (doses to about 92.2 µM), for inactives: at the highest dose inhibition of complex formation | 340,000 tested, 0.031% active | AID 540263;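 note: potency is the fitted concentration of half-maximal effect; 0% = DMSO wells and 100% = buffer wells lacking importin beta; nearly all actives have a fitted effect of over 15% in size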
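FRET biosensor (snurportin 1 IBB flanked by EYFP and cerulean), 50 nM, with compound 5 min, then 0.125 microM importin beta in PBS, 1 mM DTT, 0.02% Tween-20, 0.1% BSA. CFP/YFP ratio read after 45 min at room temperature; pre-read flags interference.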
Rango dissoc inh – inhibitors of RanGTP-induced Rango-importin beta complex dissociation; O95149+P62826; Biochemical FRET Rango-importin beta, RanGTP-induced dissociation; Potency, µM (highest dose often 46.1 µM), without a hit: at the top dose activity change, negative = inhibition; 340,000 tested, 0.071% active; note: potency is the fitted concentration of half-maximal effect; % of control where 0% means no effect; nearly all actives have a fitted effect of over 45% in size
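Rango FRET biosensor (snurportin-1 IBB flanked by N-terminal EYFP and C-terminal CFP10) at 0.1 uM, with 0.25 uM importin beta in PBS, 1mM DTT, 0.02% Tween-20, 0.1% BSA. 0.6 uM Ran, 2mM GTP and 0.2 uM RCC1 were then added for 45 min at room temperature. Inhibition read as loss of FRET rise.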
DRD3 agonist – activates the human D3 dopamine receptor; AID 652048; max activation, %; P35462; D3R DiscoveRx beta-arrestin cells, luminescence, 90 min; 410,000 tested, 0.58% active; in the data active = max activation above about 30%; note: 0% is about no effect
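Cells at 1500/well, incubated overnight, then treated with pinned compounds (dopamine as control) for 90 min at 37 degrees C. DiscoveRx reagent added for 30 - 60 minutes at room temperature; luminescence read.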
TSG101-PTAP inh – blocks PTAP/TSG101 interaction to inhibit HIV-1 budding | Potency, µM (top dose mostly 115 µM), for inactives: top-dose activity change, negative = inhibition, actives largely listed as inhibitors | AID 493005 | Fluorescence polarization, FITC-PTAP peptide / Tsg101 binding | 340,000 tested, under 10 active; active = well fitted inhibition curve with a large enough effect in the main read-out, with a control signal flat, not every such curve was filed as active; inconclusive = small, poorly fitted or top-dose-only effect, or effect the other way, or a change in a side signal; inactive = no such curve, though single readings can be large or run the other way; note: potency is the fitted concentration of half-maximal effect; % of control where 0% means no effect
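Tsg101 binding domain (10 uM final) was mixed with compound and a FITC-labeled PTAP peptide (50 nM final) in HEPES pH 7.5 buffer with NaCl, Tween 20, EDTA and TCEP; fluorescence polarization was read after 20 min at r.t.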
MmCpn inh – inhibitors of Methanococcus maripaludis chaperonin TRiC (MmCpn). 330,000 tested, 0.031% active. purified Mm-Cpn ATPase, ADP Transcreener TR-FRET. Potency, µM (highest dose often 76.9 µM), inactives show at the highest dose activity, negative = inhibition, most hits filed as inhibitors; active = well fitted inhibition curve with a large enough effect; inconclusive = small, poorly fitted or top-dose-only effect; note: potency is the fitted concentration of half-maximal effect; % is set by controls: 0 for no effect and ±100 for the full control effect; nearly all actives have a fitted effect of over 80% in size
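Purified archaeal chaperonin (25 nM final) was preincubated with compound for 10 min at 37°C, then ATP (10 uM final) was added for 30 min at 37°C in Tris pH 7.4/KCl/MgCl2/DTT buffer. ADP was quantified by HTRF Transcreener TR-FRET.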
D3 antag – blocks the human D3 dopamine receptor | P35462 | D3R cells, DiscoveRx beta-arrestin luminescence, antagonist mode; active compounds read low | max response, negative = inhibition, % | 360,000 tested, 2.5% active; in the data active = max response below about -50%; inconclusive = no clear call, values can overlap the other calls; note: % is set by controls: 0 for no effect and ±100 for the full control effect
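Cells expressing the human receptor were seeded at 1500 cells/well, incubated overnight at 37 degrees C in 5% CO2, then exposed to library compounds with dopamine controls for 90 minutes at 37 degrees C before luminescent detection.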
An asterisk follows results filed as active; ? = inconclusive; · = no result given; ! = not confirmed by another sample; [ ] = remark or other dose. In the library only some 2.9% were active in any assay of this set; here they are far more common. Unless noted, calls come from the whole dose curve.

SMILES	Rango complex inh	Rango dissoc inh	DRD3 agonist	TSG101-PTAP inh	MmCpn inh	D3 antag
CC(C(=O)NC1CCCC1)n1c(C2CCCC2)nc2ccccc21 (stereo unspecified)	·	·	-7.3	·	·	-13.7
COc1ccc(C(C(=O)NC2CCCC2)n2c(C3CCN(C(C)=O)CC3)nc3ccccc32)cc1 (stereo unspecified)	·	·	-7.6	·	·	-50.2*
Cc1cc(NC(=O)Nc2nnc(N(C)Cc3ccccc3)s2)ccc1Br	·	·	-8.8	·	·	·
O=C(N/N=C/C=C/c1ccccc1[N+](=O)[O-])c1ccncc1	-0.8%	-14.7%	-10.3	0.0%	0.2%	18.8
O=C(N/N=C/C=C/c1ccc([N+](=O)[O-])cc1)c1cccs1	25.9µM*	-6.1%	-1.1	1.1%	1.5%	-12.6
O=C(N/N=C/C=C\c1ccccc1[N+](=O)[O-])c1cccs1	6.0%	-4.8%	-16.5	-0.6%	2.9%	-63.9*
O=C(N/N=C/c1cccc([N+](=O)[O-])c1)c1cccs1	0.0%	-3.8%	-4.6	0.0%	1.6%	2.1
COC(=O)C(=Cc1ccccc1[N+](=O)[O-])C(=O)OC	0.6%	-7.6%	-5.7	-5.6%	-2.0%	-57.8*
COc1cc(NC(=O)c2ccc(-n3cnc4cccnc43)cc2)cc(OC)c1	·	·	3.5	·	·	·
CCC(C)NC(=O)CN1C(=O)c2cccnc2Sc2ccccc21 (stereo unspecified)	·	·	-12.9	·	·	·
CC(C)C(O)(C#CCN1CCCCC1)c1ccccc1 (stereo unspecified)	1.7%	-4.0%	-28.9	-7.0%	0.0%	-71.4*
OC(C#CCN1CCCC1)(c1ccccc1)c1cccnc1 (stereo unspecified)	-4.2%	-2.2%	-16.5	-0.8%	-11.7%	2.5

Look-ups from above:
CC(C(=O)NC1CCCC1)n1c(C2CCCC2)nc2ccccc21 (stereo unspecified) @ D3 antag: -13.7
COc1ccc(C(C(=O)NC2CCCC2)n2c(C3CCN(C(C)=O)CC3)nc3ccccc32)cc1 (stereo unspecified) @ D3 antag: -50.2*
O=C(N/N=C/C=C\c1ccccc1[N+](=O)[O-])c1cccs1 @ Rango dissoc inh: -4.8%

(more compounds)
SMILES	Rango complex inh	Rango dissoc inh	DRD3 agonist	TSG101-PTAP inh	MmCpn inh	D3 antag
OC(C#CCN1CCCCCC1)(c1ccccc1)c1cccnc1 (stereo unspecified)	2.6%	-3.6%	-29.5	-2.6%	-1.0%	-64.0*
OC(C#CCN1CCCCC1)c1ccccc1 (stereo unspecified)	4.4%	11.1%	-14.2	-1.1%	-1.0%	-50.6*
OC(C#CCN1CCCC1)c1ccccc1 (stereo unspecified)	-0.8%	-12.5%	-7.2	-1.5%	1.3%	4.5
COc1ccc(C(=O)N2CCCC(c3ccccc3)C2)cc1 (stereo unspecified)	1.4%	?	-2.2	-9.7%	-3.1%	?
O=C(c1ccc(F)cc1)N1CCC(c2ccccc2)C1 (stereo unspecified)	-1.1%	0.1%	-8.4	0.2%	-0.5%	-65.1*
CCc1cccc(C)c1NC(=O)CCNC(=O)c1cccc(C)c1	?	10.6%	-4.9	-3.0%	0.3%	0.5
CC[C@H](CC[C@@H](C)[C@H]1CC[C@H]2[C@@H]3CC=C4C[C@@H](O)CC[C@]4(C)[C@H]3CC[C@]12C)C(C)C	·	·	2.6	·	·	·
CC[C@@]1([C@@H]2O[C@@H]([C@H]3O[C@@](O)(CO)[C@H](C)C[C@@H]3C)C[C@@H]2C)CC[C@H]([C@]2(C)CC[C@]3(C[C@H](O)[C@@H](C)[C@@H]([C@@H](C)[C@@H](OC)[C@H](C)C(=O)O)O3)O2)O1 (stereo in doubt)	·	·	75.0*!	·	·	·
CCN(CC)CCNC(=O)c1ccc(NS(C)(=O)=O)cc1	·	·	-3.1	·	·	·
COC(=O)c1cc2nc(-c3ccc(OC)c(OC)c3)cc(C(F)(F)F)n2n1	?	-11.4%	0.0	0.0%	-3.4%	-69.8*
CN(Cc1cccs1)C(=O)C1CC(=O)N(Cc2ccccc2)C1 (stereo unspecified)	-3.8%	2.9%	4.4	1.7%	3.0%	-2.4
Cc1ccc(-n2nc(C(N)=O)nc2-c2ccccc2)cc1	-2.1%	-16.1%	3.4	-1.4%	0.1%	18.5

Ordered by molecular weight (rising): some entries from above.
SMILES	Rango complex inh	Rango dissoc inh	DRD3 agonist	TSG101-PTAP inh	MmCpn inh	D3 antag
COc1ccc(C(=O)N2CCCC(c3ccccc3)C2)cc1 (stereo unspecified)	1.4%	?	-2.2	-9.7%	-3.1%	?
CCc1cccc(C)c1NC(=O)CCNC(=O)c1cccc(C)c1	?	10.6%	-4.9	-3.0%	0.3%	0.5
CN(Cc1cccs1)C(=O)C1CC(=O)N(Cc2ccccc2)C1 (stereo unspecified)	-3.8%	2.9%	4.4	1.7%	3.0%	-2.4

More records:
SMILES	Rango complex inh	Rango dissoc inh	DRD3 agonist	TSG101-PTAP inh	MmCpn inh	D3 antag
Cc1ccc(-n2nc(C(=O)O)nc2-c2ccccc2)cc1	-0.6%	0.1%	-8.0	-3.9%	1.5%	-51.1*
Cc1cccc(N2CCN(S(=O)(=O)c3ccc(S(=O)(=O)N4CCCC4)cc3)CC2)c1C	5.3%	6.6%	0.4	-2.9%	-0.6%	2.7
Cc1cccc(NC(=O)C2CCN(S(=O)(=O)c3ccc4c(c3)OCCO4)CC2)n1	2.4%	19.0%	-4.8	-2.2%	0.9%	-53.6*
Cc1cccc(N2CCN(S(=O)(=O)c3ccc4c(c3)OCCO4)CC2)c1C	?	18.4µM*[inhibitor]	-8.0	-6.0%	-0.7%	1.4
Cc1cccc(NC(=O)C2CCN(S(=O)(=O)c3ccc4c(c3)OCCCO4)CC2)n1	-1.7%	-18.9%	-12.9	-0.6%	2.4%	9.5
Fc1ccccc1NC(=S)N/N=C/c1ccccc1Br	5.4%	2.3%	-20.3	-6.0%	-4.4%	-78.6*
O=c1cc(-c2ccccc2)nc(SCc2ccc(Cl)cc2)[nH]1	1.5%	1.2%	1.4	-1.2%	-0.3%	27.2
O=c1cc(-c2ccccc2)nc(SCc2ccccc2)[nH]1	2.6%	0.8%	8.7	1.4%	-1.0%	-54.8*
N#C/C(=C1/SC[C@@H](c2ccc(Cl)cc2Cl)S1)n1ccnc1	·	·	4.1	·	·	·
O=C(Nc1ccccc1)C1CC(=O)N(Cc2ccccc2)C1 (stereo unspecified)	-0.2%	2.3%	2.6	0.4%	0.1%	-8.4
O=C(O)c1cccc(NC(=O)C2CC(=O)N(Cc3ccccc3)C2)c1 (stereo unspecified)	-1.6%	1.8%	4.1	0.0%	1.8%	-50.6*
COc1cc(C=O)ccc1OCc1cn(CC(=O)c2ccc(O)cc2)nn1	-5.9%	13.8%	-0.5	1.7%	·	33.7
O=C(Cn1cc(COc2cc(F)cc(F)c2)nn1)c1ccc(O)cc1	-2.2%	7.0%	3.8	-2.2%	·	-23.5
O=C(Cn1cc(COc2ccc(Br)cc2[N+](=O)[O-])nn1)c1ccc(O)cc1	1.1%	-4.0%	-14.5	-3.0%	·	-58.9*
CC(=O)Nc1ccc(OCc2cn(CC(=O)c3ccc(O)cc3)nn2)cc1	·	·	-21.4	·	·	-113.9*
COc1cc(C(C)=O)ccc1OCc1cn(CC(=O)c2ccc(O)cc2)nn1	-1.1%	9.0%	3.3	-2.7%	·	-72.0*
CC(=O)c1ccc(OCc2cn(CC(=O)c3ccc(O)cc3)nn2)c(C)c1	·	·	-6.0	·	·	-24.0
Cc1cccc(C)c1OCc1cn(CC(=O)c2ccc(O)cc2)nn1	-0.5%	-10.4%	-13.4	-4.0%	·	-61.5*
CC(=O)c1ccc(OCc2cn(CC(=O)c3ccc(O)cc3)nn2)cc1	?	-9.9%	-9.4	-15.6%	·	-12.6
CCCNC(=O)C(Cc1cccc(C#N)c1)NC(=O)c1ccc(C#N)cc1 (stereo unspecified)	-4.4%	?	89.7*	-0.2%	-4.1%	-7.3

Copied from above for reference:
SMILES	Rango complex inh	Rango dissoc inh	DRD3 agonist	TSG101-PTAP inh	MmCpn inh	D3 antag
CC(=O)c1ccc(OCc2cn(CC(=O)c3ccc(O)cc3)nn2)cc1	?	-9.9%	-9.4	-15.6%	·	-12.6
CCCNC(=O)C(Cc1cccc(C#N)c1)NC(=O)c1ccc(C#N)cc1 (stereo unspecified)	-4.4%	?	89.7*	-0.2%	-4.1%	-7.3
